Results on two compounds are retold here after patent EP0866075B1, “Method to treat microbial infections by uncoupling of phosphotransferase system and appropriate agents therefor” (Arpida AG,, priority 1997, dated 1998).

This test has as its target T1, enzyme I (Escherichia coli, UniProt P08839).
T1 construct: 3 µM each of purified HPr and enzyme I (Mao et al., 1995); made in house
As to the kind of experiment: biochemical. Further details: species or system E. coli. Conditions: peptides from support-based combinatorial libraries; 30 min at 37°C, HPr rate limiting; read-out: inhibition IC50. From the text: Fig. 2. Assays for the screening, selection and characterization of inhibitory compounds from combinatorial libraries. Reaction products that can be determined experimentally are boxed. The inhibitory compound X can be in soluble form, immobilized on a filamentous phage, or bound to a microtiter well. The transporter for GlcNAc (shaded in grey) contains the IIA, IIB and IIC functional units as domains of a single polypeptide chain. • (a) Binding of Enzyme I to immobilized ligands, e.g. filamentous phages from a phage display library or synthetic peptides from a combinatorial peptide library was detected using [^1251]-Enzyme I and autoradiography. • (b) Phosphorylation by Enzyme I. To identify peptides and filamentous phages displaying a peptide which can be phosphorylated by Enzyme 1, support based peptide libraries and immobilized peptide-displaying phages were incubated over night with enzyme I in the presence of [^32P]phosphoenolpyruvate, and the phosphorylated species were detected with a PhosphorImager. […] The assay can be performed in microtiter plates and quantitated with a microplate photoreader. […] The enzyme I-specific phosphatase activity of soluble compounds can be detected from the pyruvate burst. The rate of pyruvate formation is monitored with lactate dehydrogenase and NADH. […]

For orientation: IC50 means the concentration at which inhibition is half-maximal. Take `N=C(N)NCCC[C@H](NC(=O)[C@H](CCCCN)NC(=O)[C@H](Cc1c[nH]cn1)NC(=O)[C@@H](N)Cc1c[nH]c2ccccc12)C(=O)O` [compound 12, W H KR]: the IC50 turned out to be 4.9 mM.
As to `CC(=O)N[C@@H](Cc1c[nH]c2ccccc12)C(=O)N[C@@H](Cc1c[nH]cn1)C(=O)N[C@@H](CCCCN)C(=O)N[C@@H](CCCNC(=N)N)C(=O)O` [compound 13, Ac-WH KR], the IC50 came to 5.8 mM.
